Ab-14 light chain CDR variants: yeast mating affinities

Target peptide (SARS-CoV-2 spike, HR2 region): PDVDLGDISGINAS

Parent: Ab-14, a human scFv built as VH, three GGGGS repeats, VL. Only the CDRs of the light chain vary.
VH: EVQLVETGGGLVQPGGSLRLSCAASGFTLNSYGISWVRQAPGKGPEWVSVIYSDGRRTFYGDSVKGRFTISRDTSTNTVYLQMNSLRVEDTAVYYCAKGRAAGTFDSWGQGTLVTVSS
VL: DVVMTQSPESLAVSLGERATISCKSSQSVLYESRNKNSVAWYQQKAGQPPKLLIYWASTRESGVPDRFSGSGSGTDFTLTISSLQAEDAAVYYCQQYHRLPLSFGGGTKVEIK

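The library (AAYL50) carries one to three amino acid substitutions per variant, with no insertions or deletions. AlphaSeq pools MATa yeast showing the antibodies with MATalpha yeast showing the peptide. Pairs that bind mate more often; barcode pairs of the diploids are counted by sequencing. Scores were corrected for input abundance and mapped to Kd with protein pairs of known affinity run in the same pool. The assay was run in three technical replicates.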

Each variant is given by its three light chain CDRs, as the data file delimits them; those of the parent are KSSQSVLYESRNKNSVA, WASTRES, QQYHRLPLS.
The read-out is the apparent dissociation constant on a log10 scale (nM): the lower, the stronger.
Averages over replicates are reported, and they cover detected replicates only.
"ND" marks a missing value. The strain was present, yet no cells mated with the target were sequenced in that replicate, which points to weak or no binding.
Parent in this assay: reference entry 0.65, copy in this library 1.68.

CDR-L1,CDR-L2,CDR-L3,"replicates, log10 nM","mean, log10 nM",control signals
KFSQSVLYEHRNKNSVA,WASTWES,QQYHRLPLS,ND ND 4.34,4.34,0 of 9
KSSQSVLYYSFNKNSVA,WASTRES,QQYHRLPDS,ND ND ND,ND,0 of 9
KSSQSVLDESRNKNSVA,WASTHES,QSYHRLPLS,ND ND ND,ND,0 of 9
KSSQSVYYESRNKNSVA,WASTRMS,QQYHRLPLQ,ND ND ND,ND,0 of 9
GSSQSHLYESRNKNCVA,WASTRES,QQYHRLPLS,ND ND 2.42,2.42,0 of 9
KSSQSVLYESRNKNSFA,WAWTREA,QQYHRLPLS,3.29 4.51 ND,3.90,0 of 9
KSSQSVLYESRNKNSVA,WASYRES,QQYHRWPAS,ND ND ND,ND,0 of 9
KSSGSVLYYSRNKNSEA,WASTRES,QQYHRLPLS,ND 4.79 3.78,4.28,1 of 9 (3.12)
KSSQSVLYNSRNKNSVA,WASTRES,QQYHRLPLV,1.06 1.20 1.20,1.15,1 of 9 (4.13)
KSSQSVLYESRNKNSVA,WASTRES,QQWHRQPVS,5.31 3.87 5.40,4.86,2 of 9 (4.08)
KSSQSVLYESRNKNSVA,WASTRET,QQGHRLPGS,0.70 0.98 0.74,0.81,0 of 9
KSSQWVLYESRNKNSVA,WASTRES,QQYHRLPLS,2.27 1.44 3.41,2.37,0 of 9
KSSQWVLYESRNKNSVA,GASTRES,QQYHRLPLS,-0.28 0.08 0.01,-0.06,6 of 9 (4.79)
KLSQSVLYESRNKNSVA,WASTRES,HQRHRLPLS,ND 3.27 2.74,3.00,0 of 9
KSSQSTLYESRHKNSVA,WASTRES,QQYHSLPLS,1.25 1.48 1.54,1.42,2 of 9 (3.72)
KSSQSVLYESRNKNSVL,WASTRDA,QQYHRLPLS,4.45 ND ND,4.45,2 of 9 (3.26)
KSSQSVLYESRNKNSWA,WASTRES,QQYHRLPLS,ND ND ND,ND,3 of 9 (4.27)
KSSQPVLYESRNKNWVA,WASTRES,QQYARLPLS,0.47 0.65 0.56,0.56,0 of 9
KSSQSVLYPSRNKTSVA,SASTRES,QQYHRLPLS,0.80 1.00 0.92,0.91,6 of 9 (5.64)
KSSQSVMYDSRNKNSVA,QASTRES,QQYHRLPLS,-0.26 0.10 -0.09,-0.08,5 of 9 (4.63)
KSSQSVLYQSRNKNSVA,WASTRES,QQYHELPLS,1.48 1.03 1.11,1.21,0 of 9
KSSQSVLYESRNKNSVA,WHSTRCS,QTYHRLPLS,4.39 ND ND,4.39,3 of 9 (3.75)
KSSQSVLYESRNKNSKA,WFSTRES,QWYHRLPLS,ND 3.73 ND,3.73,0 of 9
KSSQRVLYESRNKNAVA,WASTRES,DQYHRLPLS,1.18 1.29 1.05,1.17,2 of 9 (3.62)
KSSQSVLYESRNKNHVA,WASTPES,QQEHRLPLS,ND ND ND,ND,0 of 9
KSSQSVLYESRNEMSVA,WASTRWS,QQYHRLPLS,2.05 1.65 1.98,1.89,1 of 9 (3.02)
KSSQSVLYESRNKNSVA,WASPTES,QQYHRYPLS,3.55 ND 3.77,3.66,0 of 9
KQSQSVQYESRNKNSVA,WASTRES,QQYHRLPLS,0.72 0.97 1.26,0.99,0 of 9
KSSQSVLYESRNKNSVA,FASTRES,QQPHELPLS,2.77 2.53 2.41,2.57,5 of 9 (4.70)
KSSQSVLYESRNDNSVA,IASTRES,QQYHRLPLS,5.87 4.35 5.44,5.22,5 of 9 (5.17)
KSSQSVQYESRNKNSVA,WVSMRES,QQYHRLPLS,2.03 2.00 2.22,2.09,0 of 9
KSSQSVLYESRNKNSVA,WASTRES,HQYFRLPWS,ND ND ND,ND,0 of 9
KSSQNVLYRSRNKNSVA,WASTRES,QQYHGLPLS,1.82 1.89 2.03,1.91,0 of 9
KSSQSVNYESRNWNSVA,WASTRES,QQYHRLYLS,ND ND ND,ND,1 of 9 (4.26)
KSSQSVLRESRNKNSVA,WASTRDS,QQYHRLQLS,ND 5.39 4.97,5.18,2 of 9 (4.40)
KSSQSVLYESRNKNEVA,WASTRES,QIYHLLPLS,ND 5.30 ND,5.30,3 of 9 (4.80)
KSSQSVLYESRNKNGPA,WASTREG,QQYHRLPLS,ND ND ND,ND,0 of 9
KSSQSVLYESRSKNSVA,WASTRES,QQYHRLSLS,3.84 ND 5.61,4.73,3 of 9 (4.09)
KSSQSVLYEGTNKNSVA,WASTRES,QQYQRLPLS,0.66 0.95 0.90,0.84,4 of 9 (4.84)
KSSQSVLDESRNKKSVA,WASTREL,QQYHRLPLS,0.80 1.14 1.10,1.01,1 of 9 (4.19)
KSSQCVLYESRNKNSVA,WASTHEC,QQYHRLPLS,ND ND ND,ND,1 of 9 (3.15)
KSSQSVLYESKNKNSVA,WASTRES,QQYKRQPLS,ND 3.17 ND,3.17,2 of 9 (2.80)
KDEQSVLTESRNKNSVA,WASTRES,QQYHRLPLS,1.17 1.37 1.44,1.33,7 of 9 (4.55)
KSSQSVLVESRNKNSVA,WASTREC,QQYHRLPLH,2.06 2.06 2.29,2.14,4 of 9 (3.93)
KWSQSVLYESRPKNSVA,TASTRES,QQYHRLPLS,0.42 0.68 0.30,0.46,0 of 9
KSSQSCLYEFRNKNSVA,WASTRES,QYYHRLPLS,3.46 5.48 4.76,4.57,1 of 9 (3.34)
KSSQSVLYESRNKNSVA,WNSTRES,QQYKRLRLS,ND 3.67 ND,3.67,1 of 9 (2.78)
KSSQSVLYESRNKNSVA,EASTEES,PQYHRLPLS,3.39 2.27 2.80,2.82,2 of 9 (3.81)
KSSQSVLYESDNKNSVA,WASTREA,QQYHRLPLS,0.01 0.22 0.04,0.09,2 of 9 (3.12)
KSSQSVLYESRNKSSVA,WASVRES,QTYHRLPLS,2.48 2.66 3.01,2.72,2 of 9 (3.84)
KSSQSVLYRSVNTNSVA,WASTRES,QQYHRLPLS,1.02 1.34 0.77,1.04,0 of 9

Extract of 4 entries:

{"CDR-L1": "KSSQSVLYESRNKNEVA", "CDR-L2": "WASTRES", "CDR-L3": "QIYHLLPLS", "replicates, log10 nM": "ND 5.30 ND", "mean, log10 nM": "5.30", "control signals": "3 of 9 (4.80)"}
{"CDR-L1": "KSSQSVLYESRNKNSKA", "CDR-L2": "WFSTRES", "CDR-L3": "QWYHRLPLS", "replicates, log10 nM": "ND 3.73 ND", "mean, log10 nM": "3.73", "control signals": "0 of 9"}
{"CDR-L1": "KSSQSVLVESRNKNSVA", "CDR-L2": "WASTREC", "CDR-L3": "QQYHRLPLH", "replicates, log10 nM": "2.06 2.06 2.29", "mean, log10 nM": "2.14", "control signals": "4 of 9 (3.93)"}
{"CDR-L1": "KSSQSVYYESRNKNSVA", "CDR-L2": "WASTRMS", "CDR-L3": "QQYHRLPLQ", "replicates, log10 nM": "ND ND ND", "mean, log10 nM": "ND", "control signals": "0 of 9"}

Empty control strains, which show no peptide, gave a signal in 18% of pairings with library AAYL50; the median was 4.19 and 95% of these signals were weaker than 2.99. No background was subtracted. For each scFv, signals with the empty controls are counted beside the result, with their mean in brackets.

Values reported by Engelhart et al. 2022, doi:10.1038/s41597-022-01779-4 (FLAb copy).